Assays:
Format in all cases: physicochemical
[1] = Absorbance and fluorescence of fluorophore/HSA conjugates in solution; settings: 2.5 micromolar conjugate, 532 nm filter
[2] = Microwell crossover assay of SNAFL-1/HSA on Oxyphen discs; settings: 4 mg/mL Oxyphen discs, 3.6:1
[3] = Stability and leaching of membrane-immobilized conjugates
Method: Fluorescent HSA conjugates with a 2.5:1 SNAFL-1:HSA offering ratio were prepared as described in Example 4 and diluted to provide concentrations of 0.05, 0.2, 1.0 and 4 mg/mL in phosphate buffered saline (PBS) (pH 7.4). 5 microliter drops were applied via a 20 microliter pipettor to the center of pre-punched porous discs (¼ inch diameter) that were laid on a bench top. The spotted discs were allowed to air dry (about 30 minutes) and then placed in separate desiccators overnight. The dried discs were washed in separate Eppendorf tubes with 2×1 mL of PBS and allowed to soak overnight in 1 mL of PBS. […] Alternatively the discs could be re-dried in desiccators and stored dry. […] The discs had fluorescent signals that were proportional to the concentration of labeled macromolecule applied to each one as measured by the fluorescence assay described in Example 9.
The fluorescent intensity was measured at 620 nm, the fluorescent maximum of the base form of the fluorophore. Excitation used a wide open setting on the halogen lamp that efficiently excites both acid and base forms of SNAFL-1. The reflected light from the source (unmodified disc) had the lowest intensity spectrum. The spectrum of the 0.05 mg/mL disc gave a small increase in fluorescence intensity.
EBIO-3/HSA conjugate was prepared as described in Example 6 at a ratio of 2:1. […]

SNAFL-1/HSA: SNAFL-1 NHS ester conjugated to human serum albumin, various loadings, in solution or on membrane discs
fluorescent isosbestic point for pH 6-7 [1]: 572 nm | crossover with pH 10 spectrum ([2]; pH 4): 579 nm | crossover with pH 10 spectrum ([2]; pH 6): 592 nm | crossover with pH 10 spectrum ([2]; pH 7): 600 nm | crossover with pH 10 spectrum ([2]; pH 8): 611 nm | dissociation from disc surface in PBS solution ([3]; 2.5:1, 1 mg/mL Oxyphen discs, 30 day PBS soak): did not dissociate significantly | stability of washed discs in PBS solution ([3]; 2.5:1 on 0.1 micron Oxyphen discs): no degradation after 30 days

Reference: patent US9040307B2, “Fluorescent pH detector system and related methods” (Blood Cell Storage, Inc., priority 2011, dated 2015)
